Source: article PMC3988174

By UniProt entry, the sequences of proteins in these tests, tags left out. Residues count along the entry.
UniProt O81283, 728-1092: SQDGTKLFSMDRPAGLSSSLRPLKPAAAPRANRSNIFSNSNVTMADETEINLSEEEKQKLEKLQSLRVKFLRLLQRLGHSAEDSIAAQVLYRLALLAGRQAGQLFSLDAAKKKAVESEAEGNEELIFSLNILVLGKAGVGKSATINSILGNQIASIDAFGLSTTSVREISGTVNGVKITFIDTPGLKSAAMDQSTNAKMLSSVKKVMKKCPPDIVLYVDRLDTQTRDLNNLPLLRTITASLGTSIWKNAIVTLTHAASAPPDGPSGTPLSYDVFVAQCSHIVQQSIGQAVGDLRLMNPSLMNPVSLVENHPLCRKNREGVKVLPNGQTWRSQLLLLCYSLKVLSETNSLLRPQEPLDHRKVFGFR

Target: atToc159 G-domain bait (Arabidopsis thaliana) (UniProt O81283)
Assay: two-hybrid; pairwise split-ubiquitin yeast two-hybrid of isolated NubG-preys with Toc159G, Toc132G or Toc132AG bait in NMY51; growth on SD-LWHA (3-AT) and quantitative β-Gal assay, activity relative to a reference bait set to 100%

% increase in strength of interaction (β-Gal) with Toc159G against Toc132G | % decrease in strength of interaction (β-Gal) with Toc159G against Toc132G | Substance
21% |  | Light Harvesting Complex Of Photosystem II 5 (from UniProt Q9XF89 1-280) (natural protein)
23% |  | Light harvesting complex photosystem II (from UniProt Q07473 1-290) (natural protein)
 | -7.84% | RuBisCO small subunit 3B (from UniProt P10798 1-181) (natural protein)
